Data taken from patent publication US10494332B2, “Protein tyrosine phosphatases or SHP2 inhibitors and uses thereof” (Indiana University Research and Technology Corporation, priority 2015, dated 2019).

Assay: Pharmacokinetics and bioavailability in guinea pigs
Format: in vivo
Conditions: guinea pig, plasma, po
[1] = Co-admin of L335M34 (50 mg/kg) and L01Z08 (20 mg/kg)
[2] = Single, L335M34 50 mg/kg, L01Z08 20 mg/kg

Compound	half-life [1] [h]	half-life [2] [h]
Cc1c(Br)cc(NC(=O)CS(=O)(=O)O)cc1Br	4.16	5.2
O=C(O)c1cc2c(C#Cc3cccc(C(F)(F)F)c3)c(-c3ccccc3)oc2cc1O [Compound L01Z08]	6.14	5.51
